Assay results from ChEMBL document CHEMBL1124132, “Adenosine receptor agonists: synthesis and biological evaluation of 1-deaza analogues of adenosine derivatives” (J Med Chem, 1988).

Chains of the proteins cited; added tags and fusions are not shown. Lines headed by an entry give the natural chain unless they say otherwise; changes in a name come on top.
UniProt P29276: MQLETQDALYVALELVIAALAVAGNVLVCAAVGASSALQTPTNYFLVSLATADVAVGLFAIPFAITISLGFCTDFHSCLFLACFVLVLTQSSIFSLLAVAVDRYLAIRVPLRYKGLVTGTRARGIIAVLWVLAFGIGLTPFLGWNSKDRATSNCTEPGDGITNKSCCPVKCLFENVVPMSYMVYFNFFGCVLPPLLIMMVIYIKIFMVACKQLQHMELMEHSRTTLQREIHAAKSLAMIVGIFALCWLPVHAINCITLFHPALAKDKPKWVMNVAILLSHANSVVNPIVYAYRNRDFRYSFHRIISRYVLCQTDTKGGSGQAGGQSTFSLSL
UniProt P30543: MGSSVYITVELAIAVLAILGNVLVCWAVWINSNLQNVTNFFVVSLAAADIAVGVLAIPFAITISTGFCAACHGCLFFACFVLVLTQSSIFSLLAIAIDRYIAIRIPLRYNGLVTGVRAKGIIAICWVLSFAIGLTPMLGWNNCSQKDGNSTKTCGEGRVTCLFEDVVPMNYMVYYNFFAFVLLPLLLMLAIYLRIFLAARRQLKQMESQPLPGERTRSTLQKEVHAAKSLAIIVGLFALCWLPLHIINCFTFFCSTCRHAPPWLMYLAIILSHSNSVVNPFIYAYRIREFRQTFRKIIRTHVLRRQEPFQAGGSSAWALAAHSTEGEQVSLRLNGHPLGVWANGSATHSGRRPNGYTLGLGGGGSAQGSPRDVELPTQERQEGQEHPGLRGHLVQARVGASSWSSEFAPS

Target: Adenosine A2 receptor (Rattus norvegicus, UniProt P29276+P30543)

Question: With `C[C@H](Cc1ccccc1)Nc1ncnc2c1ncn2[C@@H]1O[C@H](CO)[C@@H](O)[C@H]1O` [(R)-PIA] as the molecule, how does the Ki read?
Answer: 730 nM
